Laboratory results published in PubChem BioAssay AID743255 (National Center for Advancing Translational Sciences (NCATS), 2014).
This is a selection; strong and weak results do not stand in their true shares. Some results for these compounds are left out of this collection, so the calls shown say nothing about other tests. Inconclusive results are not listed. Activity calls are given as the source filed them. Calls follow the shape of the dose curve; as a rule, active = well fitted inhibition curve with a large enough effect; inconclusive = small, poorly fitted or top-dose-only effect; inactive = no such curve, though single readings can be large or run the other way.

Sequences of proteins named here, by UniProt entry; tags and fusion partners are left off.
UniProt O94782, whole entry, looked up: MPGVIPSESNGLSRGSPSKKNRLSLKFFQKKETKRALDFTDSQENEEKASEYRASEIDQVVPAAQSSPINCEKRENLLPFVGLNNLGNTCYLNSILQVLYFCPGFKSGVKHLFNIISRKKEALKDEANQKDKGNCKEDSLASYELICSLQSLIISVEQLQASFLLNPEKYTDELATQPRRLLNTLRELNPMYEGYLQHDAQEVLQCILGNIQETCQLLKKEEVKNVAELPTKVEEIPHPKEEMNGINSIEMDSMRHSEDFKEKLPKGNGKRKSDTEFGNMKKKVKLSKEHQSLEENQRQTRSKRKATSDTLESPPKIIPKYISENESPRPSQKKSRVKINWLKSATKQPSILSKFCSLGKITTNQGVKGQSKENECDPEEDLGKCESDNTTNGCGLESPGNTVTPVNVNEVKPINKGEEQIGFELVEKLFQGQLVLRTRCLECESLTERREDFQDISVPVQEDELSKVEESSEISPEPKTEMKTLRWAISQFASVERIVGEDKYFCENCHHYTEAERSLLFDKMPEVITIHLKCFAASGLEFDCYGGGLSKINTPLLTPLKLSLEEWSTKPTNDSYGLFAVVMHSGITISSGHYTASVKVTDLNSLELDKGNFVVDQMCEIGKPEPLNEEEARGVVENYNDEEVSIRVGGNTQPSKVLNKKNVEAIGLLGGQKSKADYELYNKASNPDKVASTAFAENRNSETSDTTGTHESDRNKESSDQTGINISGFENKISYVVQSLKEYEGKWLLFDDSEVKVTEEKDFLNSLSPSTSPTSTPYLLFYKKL

molecular target: Ubiquitin carboxyl-terminal hydrolase 1 (Homo sapiens) (UniProt O94782); assay: Inhibitors of USP1/UAF1: Primary Screen; conditions: recombinant USP1/UAF1, Ub-Rhodamine cleavage fluorescence; at 57.1 µM (top of the series); also: nearly all actives have a fitted effect of over 60% in size
Text: Deubiquitinating enzymes (DUBs) are a class of enzymes that can cleave isopeptide bond formed between the C-terminal carboxylate of ubiquitin and a lysine side-chain amino group on the target protein. Among them, ubiquitin specific proteases (USPs) constitute the largest DUB family. Human USPs are emerging as promising targets for pharmacological intervention because of their connection to a number of human diseases, including prostate, colon and breast cancer (1, 2), pediatric acute lymphoblastic leukemia (3), and familial cylindromatosis (4). The advantage of inhibiting USPs lies in the potential specificity of therapeutic intervention that can lead to better efficacy and reduce nonspecific side effects. In a collaboration between the University of Delaware and the NIH Chemical Genomics Center, a high-throughput screen assay was developed to screen for USP1/UAF1 inhibitors. This miniaturized assay has a fluorescent read-out and is used to screen the NIH Molecular Libraries Small Molecule Repository (MLSMR) in order to identify a small molecule that inhibits USP1. NIH Chemical Genomics Center [NCGC] NIH Molecular Libraries Probe Centers Network [MLPCN] MLPCN Grant: DA030552 Assay Submitter (PI): Zhihao Zhuang, University of Delaware 1. Priolo, C., et al. (2006) The isopeptidase USP2a protects human prostate cancer from apoptosis. Cancer Res 66, 8625-8632 2. Popov, N., et al. (2007) The ubiquitin-specific protease USP28 is required for MYC stability. Nat Cell Biol 9, 765-774 3. De Pitta, C., et al. (2005) A leukemia-enriched cDNA microarray platform identifies new transcripts with relevance to the biology of pediatric acute lymphoblastic leukemia. Haematologica 90, 890-898 4. Kovalenko, A., et al. (2003) The tumour suppressor CYLD negatively regulates NF-kappaB signalling by deubiquitination. Nature 424, 801-805
3 microliters of reagents (buffer in columns 3 and 4 as negative control and 1nM USP1/UAF1 complex in columns 1, 2, and 5-48) are dispensed into Greiner black solid bottom 1536-well assay plates. Compounds are then transferred via Kalypsys pin tool equipped with 1536-pin array (10nl slotted pins, V&P Scientific, San Diego, CA). Following an incubation step of 15 min at room temperature, 1ul of Ub-Rho substrate (150nM final concentration) is added to initiate the reaction. The plates are immediately centrifuged at 1000 rpm for 15 seconds, and subsequently transferred to a ViewLux high-throughput CCD imager (PerkinElmer) wherein kinetic measurements of fluorescence are acquired using 480 nm excitation/540 nm emission filter set (6 reads every 60 seconds, see Table 1). All reagents are diluted in an assay buffer consisting of 50mM HEPES (pH 7.8), 0.5mM EDTA, 0.1 mg/ml BSA, 1mM TCEP, and 0.01% Tween-20.
% is scaled to controls: 0 for no effect and ±100 for the full control effect.

**Q.** How did the activity change, negative = inhibition turn out when `CC(C)Oc1ccc(C(=O)NCC2(N(C)C)CCCCC2)cc1` was run?
**A.** Its activity change, negative = inhibition is inactive: 13.5%.

**Q.** For `O=C(OCCN1CCCC1)C(O)(c1ccccc1)c1ccccc1`, which activity change, negative = inhibition is on record?
**A.** The activity change, negative = inhibition was inactive: -15.8%.

**Q.** For `CN(C)c1cccc(C(=O)NCC2(N(C)C)CCCCC2)c1`, which activity change, negative = inhibition is on record?
**A.** The activity change, negative = inhibition was inactive: -9.45%.

**Q.** Which activity change, negative = inhibition does the source give for `C=C(C)C#CC(O)(C(=O)OC1CCN(C)CC1)c1ccccc1` (stereo not given) here?
**A.** The activity change, negative = inhibition was inactive: -23.4%.

**Q.** With `COc1cc(C(=O)NCC2(N(C)C)CCCCC2)cc(OC)c1OC` as the compound, how does the activity change, negative = inhibition read?
**A.** The activity change, negative = inhibition was inactive: -6.37%.

**Q.** `COc1ccc(Br)c(C(=O)NCC2(N3CCCCC3)CCCCC2)c1` was tested. Which activity change, negative = inhibition did it give?
**A.** Its activity change, negative = inhibition is inactive: -4.85%.

**Q.** Which activity change, negative = inhibition does the source give for `CC(C)COc1ccc(C(=O)NCC2(N(C)C)CCCCC2)cc1` here?
**A.** The activity change, negative = inhibition was inactive: -16.3%.

**Q.** `COc1cccc(C(=O)NCC2(N3CCOCC3)CCCCC2)c1` was tested. Which activity change, negative = inhibition did it give?
**A.** The activity change, negative = inhibition was inactive: -18%.

**Q.** `O=C(OC1CN2CCC1CC2)C(CO)(c1ccccc1)c1ccccc1` (stereo not given) was tested. Which activity change, negative = inhibition did it give?
**A.** The activity change, negative = inhibition was inactive: 3.98%.

**Q.** For `O=C(NCC1(N2CCCCC2)CCCCC1)c1cccc(Cl)c1`, which activity change, negative = inhibition is on record?
**A.** The activity change, negative = inhibition was inactive: -3.19%.

**Q.** Which activity change, negative = inhibition does the source give for `COc1cccc(C(=O)NCC2(N3CCCCC3)CCCCC2)c1` here?
**A.** Its activity change, negative = inhibition is inactive: -6.48%.

**Q.** For `COc1ccc(Cl)cc1C(=O)NCC1(N(C)C)CCCCC1`, which activity change, negative = inhibition is on record?
**A.** Its activity change, negative = inhibition is inactive: -7.83%.

**Q.** `COc1ccc(C(=O)NCC2(N(C)C)CCCCC2)cc1Cl` was tested. Which activity change, negative = inhibition did it give?
**A.** Its activity change, negative = inhibition is inactive: -3.31%.

**Q.** How did the activity change, negative = inhibition turn out when `COc1cc(C(=O)NCC2(N(C)C)CCCCC2)c([N+](=O)[O-])cc1OC` was run?
**A.** Its activity change, negative = inhibition is inactive: -6.55%.

**Q.** How did the activity change, negative = inhibition turn out when `CN(C)C1(CNC(=O)c2ccc(Br)cc2)CCCCC1` was run?
**A.** The activity change, negative = inhibition was inactive: -13.8%.

**Q.** `COc1ccc(C(=O)NCC2(N(C)C)CCCCC2)cc1` was tested. Which activity change, negative = inhibition did it give?
**A.** The activity change, negative = inhibition was inactive: -6.4%.

**Q.** With `CCOc1cccc(C(=O)NCC2(N(C)C)CCCCC2)c1` as the compound, how does the activity change, negative = inhibition read?
**A.** The activity change, negative = inhibition was inactive: -16.3%.

**Q.** Which activity change, negative = inhibition does the source give for `Cc1cc(C(=O)NCC2(N3CCCCC3)CCCCC2)ccc1[N+](=O)[O-]` here?
**A.** The activity change, negative = inhibition was inactive: -22.5%.

**Q.** How did the activity change, negative = inhibition turn out when `CCN1CCCC(OC(=O)C2(O)c3ccccc3C=Cc3ccccc32)C1` (stereo not given) was run?
**A.** Its activity change, negative = inhibition is inactive: -8.79%.

**Q.** How did the activity change, negative = inhibition turn out when `O=C(NCC1(N2CCCCC2)CCCCC1)c1cccc(Br)c1` was run?
**A.** Its activity change, negative = inhibition is inactive: -24.2%.

**Q.** With `C=CCN1CCN(CCOC(=O)C(O)(c2ccccc2)c2ccccc2)CC1` as the compound, how does the activity change, negative = inhibition read?
**A.** The activity change, negative = inhibition was inactive: -11.4%.

**Q.** Which activity change, negative = inhibition does the source give for `O=C(NCC1(N2CCCCC2)CCCCC1)c1cc(F)c(F)cc1Cl` here?
**A.** The activity change, negative = inhibition was inactive: -21.1%.

**Q.** With `CCCCOc1ccccc1C(=O)NCC1(N(C)C)CCCCC1` as the compound, how does the activity change, negative = inhibition read?
**A.** Its activity change, negative = inhibition is inactive: -29.5%.

**Q.** Which activity change, negative = inhibition does the source give for `CN(C)C1(CNC(=O)c2ccccc2[N+](=O)[O-])CCCCC1` here?
**A.** Its activity change, negative = inhibition is inactive: -17%.

**Q.** How did the activity change, negative = inhibition turn out when `Cc1ccccc1C(=O)NCC1(N2CCCCC2)CCCCC1` was run?
**A.** Its activity change, negative = inhibition is inactive: -16.2%.

**Q.** For `CN(C)C1CCCC1OC(=O)C(O)(c1ccccc1)c1ccccc1` (stereo not given), which activity change, negative = inhibition is on record?
**A.** Its activity change, negative = inhibition is inactive: -18.8%.

**Q.** For `CN(C)c1ccc(C(=O)NCC2(N(C)C)CCCCC2)cc1`, which activity change, negative = inhibition is on record?
**A.** Its activity change, negative = inhibition is inactive: -3%.

**Q.** For `Cc1ccc(C(=O)NCC2(N3CCCCC3)CCCCC2)cc1`, which activity change, negative = inhibition is on record?
**A.** The activity change, negative = inhibition was inactive: 2.73%.

**Q.** How did the activity change, negative = inhibition turn out when `CN(C)C1(CNC(=O)c2ccccc2F)CCCCC1` was run?
**A.** The activity change, negative = inhibition was inactive: -26.9%.

**Q.** `CN(C)C1(CNC(=O)c2cccc(Cl)c2)CCCCC1` was tested. Which activity change, negative = inhibition did it give?
**A.** The activity change, negative = inhibition was inactive: -14.1%.

**Q.** `CCN(CC)CC(C)C(C)OC(=O)C(O)(c1ccccc1)c1ccccc1` (stereo not given) was tested. Which activity change, negative = inhibition did it give?
**A.** Its activity change, negative = inhibition is inactive: -3.19%.

**Q.** For `COc1cc(SC)ccc1C(=O)NCC1(N(C)C)CCCCC1`, which activity change, negative = inhibition is on record?
**A.** The activity change, negative = inhibition was inactive: -3.73%.

**Q.** Which activity change, negative = inhibition does the source give for `CC(C)N1C(=O)CC2(CCN(CCOC(=O)C(O)(c3ccccc3)c3ccccc3)CC2)C1=O` here?
**A.** Its activity change, negative = inhibition is inactive: -8.4%.

**Q.** How did the activity change, negative = inhibition turn out when `CN1[C@@H]2CC[C@H]1CC(OC(=O)C(O)(c1ccccc1)c1ccccc1)C2` (stereo not given in full) was run?
**A.** The activity change, negative = inhibition was inactive: -13%.

**Q.** For `O=C(NCC1(N2CCCCC2)CCCCC1)c1cc([N+](=O)[O-])ccc1Cl`, which activity change, negative = inhibition is on record?
**A.** Its activity change, negative = inhibition is inactive: -11.2%.
